# Literature values, collected in patent US7244713B2, “Nucleoside compounds for treating viral infections” (Genelabs Technologies, Inc., priority 2003, dated 2007).
# Details: in vivo; cited from earlier work
compound,measurement,value
"NC(=O)c1ncn([C@@H]2O[C@H](CO)[C@@H](O)[C@H]2O)n1 [Ribavirin, 1-β-D-ribofuranosyl-1H-1,2,-4-triazole-3-carboxamide]",teratogenicity / embryotoxicity,teratogenic and embryotoxic
